The values that follow are results of earlier work, collected in paper PMC7309225, “Synthesis, Biodistribution, and Radiation Dosimetry of a Novel mGluR5 Radioligand: ^18F-AZD9272” (ACS Chemical Neuroscience, 2020).

For this series the following is noted: in vivo; cited from earlier work.

As for ^18F-FDG, the Estimated radiation dose is given as 0.015–0.029 mSv/MBq.
